Results: ChEMBL document CHEMBL1150384, “Design, synthesis, and evaluation of potential inhibitors of nitric oxide synthase” (Bioorg Med Chem, 2008)

By UniProt entry, the sequences of proteins in these tests, tags left out.
UniProt P29475, whole entry: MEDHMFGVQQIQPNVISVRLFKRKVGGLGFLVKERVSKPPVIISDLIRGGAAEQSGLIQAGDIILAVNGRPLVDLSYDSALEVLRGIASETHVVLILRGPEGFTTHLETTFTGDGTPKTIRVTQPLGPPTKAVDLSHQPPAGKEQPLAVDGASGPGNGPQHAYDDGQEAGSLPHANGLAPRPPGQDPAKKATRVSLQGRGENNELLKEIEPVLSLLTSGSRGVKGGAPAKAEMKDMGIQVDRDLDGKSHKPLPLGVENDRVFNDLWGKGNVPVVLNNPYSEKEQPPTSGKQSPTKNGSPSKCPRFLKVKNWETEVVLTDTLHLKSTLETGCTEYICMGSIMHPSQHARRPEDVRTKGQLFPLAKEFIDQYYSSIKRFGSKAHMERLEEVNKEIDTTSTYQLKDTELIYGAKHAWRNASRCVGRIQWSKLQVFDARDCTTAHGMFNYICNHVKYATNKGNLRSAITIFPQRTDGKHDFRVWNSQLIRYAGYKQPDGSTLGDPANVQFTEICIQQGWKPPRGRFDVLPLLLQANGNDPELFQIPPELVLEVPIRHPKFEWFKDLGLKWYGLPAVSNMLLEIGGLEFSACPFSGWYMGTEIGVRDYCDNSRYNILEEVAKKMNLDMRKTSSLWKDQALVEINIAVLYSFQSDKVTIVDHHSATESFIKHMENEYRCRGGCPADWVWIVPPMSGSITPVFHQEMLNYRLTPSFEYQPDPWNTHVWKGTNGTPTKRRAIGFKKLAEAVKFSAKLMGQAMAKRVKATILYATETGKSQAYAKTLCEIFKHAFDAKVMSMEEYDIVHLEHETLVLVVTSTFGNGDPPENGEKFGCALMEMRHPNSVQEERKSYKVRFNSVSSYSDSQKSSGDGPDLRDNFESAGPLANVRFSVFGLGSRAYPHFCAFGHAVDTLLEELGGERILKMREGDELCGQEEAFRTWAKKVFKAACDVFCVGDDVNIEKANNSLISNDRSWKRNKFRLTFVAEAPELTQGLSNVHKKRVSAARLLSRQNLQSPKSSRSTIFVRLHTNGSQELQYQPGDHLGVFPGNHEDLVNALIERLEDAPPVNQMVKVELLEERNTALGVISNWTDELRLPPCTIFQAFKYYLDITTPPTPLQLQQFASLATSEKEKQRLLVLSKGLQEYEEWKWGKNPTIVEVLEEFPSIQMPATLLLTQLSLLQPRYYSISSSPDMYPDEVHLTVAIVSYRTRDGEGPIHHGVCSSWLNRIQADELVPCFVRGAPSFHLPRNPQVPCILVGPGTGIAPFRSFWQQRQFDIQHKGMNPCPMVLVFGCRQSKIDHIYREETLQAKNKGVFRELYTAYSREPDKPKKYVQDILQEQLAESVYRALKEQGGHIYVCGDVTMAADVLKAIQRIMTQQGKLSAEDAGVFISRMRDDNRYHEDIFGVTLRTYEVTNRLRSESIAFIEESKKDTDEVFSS

Target: Nitric oxide synthase 1 (Homo sapiens, UniProt P29475)

pKi: 5.77
SMILES: CC(=N)NCCC[C@H](N)C(=O)O [L-NIO]

pKi: −log10 of the molar value.
